This note sets out measurements from US20100075343A1, “NOVEL PEPTIDES” (priority 2007, published 2010).

The test system of this assay is antiserum against ESPGPERVW peptide of human VGF. The class given is binding. The following applies: 1, 10, and 100 pmol of the peptides. The method, then: Namely, to 100 μL of antiserum diluted 9×10^5 folds with RIA buffer, 100 μL of RIA buffer containing a fixed amount of [^125I]-labeled Peptide 1 (approximately 20000 cpm, 500-550 Bq, approximately 9 fmol in terms of peptide amount) and 100 μL of RIA buffer solutions each containing a sequentially diluted VGF-derived peptide were added, this was incubated at 4° C. for 40 hours, and the labeled Peptide 1 and VGF-derived peptide were competitively bound to the antibody in the antiserum. […] Reactions for non-specific binding were performed in quadruplicates, and the other reactions were performed in duplicates, and for each of the reactants, the immune complex was precipitated as in the above-mentioned antibody titer measurements, and its radioactivity (cpm) was measured. The average radioactivity of non-specific binding reaction is defined as non-specific binding level N, the radioactivity value for each VGF-derived peptide addition reaction is defined as Y, and the radioactivity value of maximum binding reaction is defined as Z. The percentage ratio (B/B0) of antiserum specific binding level (B) with peptide addition to the maximum binding level (B0), was determined using the following formula. […]

For calcitonin gene-related peptide, the “inhibition of binding of the antiserum to labeled peptide” value is recorded as “none of these peptides showed inhibition”.
